Test results: paper PMC11729909, “FOXP1 phosphorylation antagonizes its O-GlcNAcylation in regulating ATR activation in response to replication stress” (The EMBO Journal, 2024)

Experiments:
Experiment in all cases: pull-down; GST pull-down: GST-FOXP1 or its deletion mutants immobilised on Glutathione Sepharose 4B, incubated with bacterially purified His-RPA32 or His-RPA70 for 4 h at 4 °C
Settings in all cases: both partners purified
[1] = biological target: T1, GST-tagged FOXP1 Δ431–450 (human, UniProt Q9H334 1-677, Δ431–450)
T1 construct: also called pGEX-4T-1-FOXP1 Δ431–450; source: E. coli, purified
T1 sequence (looked up): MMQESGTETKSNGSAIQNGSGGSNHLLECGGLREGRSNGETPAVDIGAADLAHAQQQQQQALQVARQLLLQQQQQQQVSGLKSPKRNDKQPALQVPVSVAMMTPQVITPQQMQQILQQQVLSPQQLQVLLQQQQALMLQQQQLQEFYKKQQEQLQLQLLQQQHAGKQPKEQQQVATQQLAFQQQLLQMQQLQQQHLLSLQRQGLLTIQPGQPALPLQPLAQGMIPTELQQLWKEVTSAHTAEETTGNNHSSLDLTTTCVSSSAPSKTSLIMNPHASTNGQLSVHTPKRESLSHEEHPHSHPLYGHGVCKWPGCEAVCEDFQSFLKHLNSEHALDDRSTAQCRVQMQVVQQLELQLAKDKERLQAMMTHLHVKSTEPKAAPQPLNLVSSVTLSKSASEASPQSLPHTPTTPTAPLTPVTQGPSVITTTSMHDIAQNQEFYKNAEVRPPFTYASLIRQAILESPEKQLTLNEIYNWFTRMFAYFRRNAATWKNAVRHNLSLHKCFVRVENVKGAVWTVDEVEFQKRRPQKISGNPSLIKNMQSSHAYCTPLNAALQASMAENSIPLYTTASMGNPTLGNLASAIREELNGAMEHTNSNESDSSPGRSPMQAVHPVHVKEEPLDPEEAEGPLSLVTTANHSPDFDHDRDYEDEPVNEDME

[2] = biological target: T2, GST-tagged FOXP1 Δ451–464 (human, UniProt Q9H334 1-677, Δ451–464)
T2 construct: source: E. coli, purified
T2 sequence (looked up): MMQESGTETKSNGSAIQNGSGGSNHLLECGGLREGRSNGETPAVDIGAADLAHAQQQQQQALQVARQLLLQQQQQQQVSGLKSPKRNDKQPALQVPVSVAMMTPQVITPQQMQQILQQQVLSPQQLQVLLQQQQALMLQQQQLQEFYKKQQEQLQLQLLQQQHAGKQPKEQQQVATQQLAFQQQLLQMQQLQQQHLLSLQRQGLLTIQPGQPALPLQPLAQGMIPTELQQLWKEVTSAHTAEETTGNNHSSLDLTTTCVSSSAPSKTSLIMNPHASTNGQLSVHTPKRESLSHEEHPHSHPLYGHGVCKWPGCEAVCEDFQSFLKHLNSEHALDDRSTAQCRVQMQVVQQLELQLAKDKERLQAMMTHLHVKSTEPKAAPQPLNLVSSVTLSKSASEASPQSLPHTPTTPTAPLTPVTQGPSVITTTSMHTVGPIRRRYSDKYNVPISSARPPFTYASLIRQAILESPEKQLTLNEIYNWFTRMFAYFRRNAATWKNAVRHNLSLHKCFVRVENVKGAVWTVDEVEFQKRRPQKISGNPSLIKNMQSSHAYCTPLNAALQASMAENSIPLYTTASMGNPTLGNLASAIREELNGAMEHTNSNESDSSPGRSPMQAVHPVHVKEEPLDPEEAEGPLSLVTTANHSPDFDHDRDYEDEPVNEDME

[3] = biological target: T3, GST-tagged FOXP1 (wild type, full length) (human, UniProt Q9H334 1-677)
T3 construct: FOXP1, human, full length; Vector pGEX-4T-1; also called GST-FOXP1; pGEX-4T-1-FOXP1; source: E. coli, purified
T3 sequence (looked up): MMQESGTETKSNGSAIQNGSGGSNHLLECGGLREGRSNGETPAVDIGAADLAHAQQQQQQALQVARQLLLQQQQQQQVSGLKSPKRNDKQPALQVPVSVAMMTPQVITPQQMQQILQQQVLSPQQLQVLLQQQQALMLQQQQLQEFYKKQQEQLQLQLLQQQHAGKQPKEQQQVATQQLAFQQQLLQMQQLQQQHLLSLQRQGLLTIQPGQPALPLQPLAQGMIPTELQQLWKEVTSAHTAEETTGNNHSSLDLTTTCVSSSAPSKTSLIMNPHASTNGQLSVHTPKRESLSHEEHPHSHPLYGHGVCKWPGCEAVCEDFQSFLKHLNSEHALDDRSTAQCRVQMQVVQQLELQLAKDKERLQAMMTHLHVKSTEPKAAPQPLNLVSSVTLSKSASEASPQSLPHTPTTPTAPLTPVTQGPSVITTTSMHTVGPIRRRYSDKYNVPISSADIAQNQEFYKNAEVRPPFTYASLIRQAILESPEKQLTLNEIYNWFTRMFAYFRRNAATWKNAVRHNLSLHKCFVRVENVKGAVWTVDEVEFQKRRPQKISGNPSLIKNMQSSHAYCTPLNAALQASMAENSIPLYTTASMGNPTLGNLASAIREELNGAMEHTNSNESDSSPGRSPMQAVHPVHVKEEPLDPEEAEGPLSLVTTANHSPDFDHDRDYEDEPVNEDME

Measured: binding result

B1: His-tagged RPA32 (natural protein, human, UniProt P15927 1-270, looked up)
chain: MWNSGFESYGSSSYGGAGGYTQSPGGFGSPAPSQAEKKSRARAQHIVPCTISQLLSATLVDEVFRIGNVEISQVTIVGIIRHAEKAPTNIVYKIDDMTAAPMDVRQWVDTDDTSSENTVVPPETYVKVAGHLRSFQNKKSLVAFKIMPLEDMNEFTTHILEVINAHMVLSKANSQPSAGRAPISNPGMSEAGNFGGNSFMPANGLTVAQNQVLNLIKACPRPEGLNFQDLKNQLKHMSVSSIKQAVDFLSNEGHIYSTVDDDHFKSTDAE
notes: RPA32, human, full length; Vector pet28a; also called His-RPA32; pet28a-RPA32; source: E. coli, purified
binds: all assays above
